The target of the experiment is recombinant human estrone sulfatase (Homo sapiens, UniProt P08842). Description: Test for inhibition of estrone sulfatase (steroid sulfatase). Particulars: read-out: Inhibitory activity against steroid sulfatase IC50; 4-methylumbelliferyl sulfate 0.3 mmol/L, phosphate buffer pH 7.5, 37° C., 1 hour; enzyme expressed in CHO cells, partially purified. The method, then:
Test Example 1: Test for Inhibition of Estrone Sulfatase (Steroid Sulfatase)
4-Methylumbelliferyl sulfate (final concentration 0.3 mmol/L), recombinant human estrone sulfatase (7.8 ng/well), and each solution of the test compound having each test concentrations (test compound was dissolved in 0.001 mL of DMSO) were added to a phosphate buffer (pH 7.5) (final volume 0.1 mL) containing 0.28 mol/L sucrose and 0.04 mol/L nicotinamide. An enzyme reaction was conducted at 37° C. for 1 hour. The human estrone sulfatase gene was introduced into Chinese Hamster Ovary (CHO) cells, and the recombinant human estrone sulfatase was expressed, then it was used after partial purification. After completing the enzyme reaction, 2 mol/L glycine-sodium hydroxide solution (pH 10.3) (0.13 mL) was added and stirred. Using a fluorescent plate reader (Cyto Fluor II), the fluorescent strength of the generated 4-methylumbelliferone was measured. […] The inhibitory activity against estrone sulfatase for each concentration of the test compounds was calculated using the following equation. […]
The inhibitory activity against estrone sulfatase of the aryl sulfamate derivative can be expressed as the concentration (IC50) of aryl sulfamate derivative at which the estrone sulfatase activity in the presence of the aryl sulfamate derivative is half of that when no test compound is added.

The chains behind the UniProt entries cited, without tags or fusion partners. Residues count along the entry.
UniProt P08842, 22-583 limits assumed: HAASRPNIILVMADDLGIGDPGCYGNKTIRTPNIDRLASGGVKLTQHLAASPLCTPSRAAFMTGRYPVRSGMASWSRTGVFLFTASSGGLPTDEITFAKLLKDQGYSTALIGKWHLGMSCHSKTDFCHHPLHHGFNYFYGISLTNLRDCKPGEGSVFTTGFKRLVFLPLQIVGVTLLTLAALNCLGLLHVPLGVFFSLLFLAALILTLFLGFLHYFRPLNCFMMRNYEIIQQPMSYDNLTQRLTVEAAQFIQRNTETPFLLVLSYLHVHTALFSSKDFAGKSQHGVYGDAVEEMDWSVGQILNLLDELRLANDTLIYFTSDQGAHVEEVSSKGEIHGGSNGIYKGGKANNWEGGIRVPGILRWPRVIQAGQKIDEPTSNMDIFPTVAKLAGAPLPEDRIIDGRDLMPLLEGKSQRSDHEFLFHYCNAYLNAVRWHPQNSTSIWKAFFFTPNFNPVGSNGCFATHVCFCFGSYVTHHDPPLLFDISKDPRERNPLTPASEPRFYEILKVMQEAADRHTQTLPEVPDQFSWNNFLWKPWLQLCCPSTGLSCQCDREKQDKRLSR

Experimental findings from patent US20040254241A1, “Aryl sulfamate derivatives” (priority 2004, published 2004) are described below.

`CCCCCCCCNC(=O)C(C#N)=C(C)c1ccc(OS(N)(=O)=O)cc1`: the IC50 (commonly the midpoint of a concentration-inhibition curve) is less than 12 nM.
